13 compounds from patent publication US12234240B2, “Substituted imidazo[5,1-d][1,2,3,5]tetrazines for the treatment of cancer” (The Board of Trustees of the University of Illinois, priority 2018, dated 2025) can be followed below.

Read-outs that look alike come from different tables or passages of the source.

For one assay, the system named is U118MG cells. The experiment in a line: Cell viability, Alamar Blue, 7-day incubation, U118MG. In kind it is cell-based. To be noted: Homo sapiens, U-118-MG, 168 h, MGMT +, error SEM. The procedure:
Anticancer activity of C8 substituted imidazotetrazines. With a suite of imidazotetrazines in hand, each compound was evaluated against a panel of human GBM cell lines (Table 1a, Table 1b).

In another assay the test system is U3054MG GBM cell line. The assay can be described thus: Cell viability, Alamar Blue, 7-day incubation, patient-derived U3054MG. To be noted: Homo sapiens, 168 h, read-out: IC50 U3054MG. (In general: Resazurin is reduced to fluorescent resorufin, in cell work by metabolically active cells.)
The mark [1] stands for this setting: Table 1a, 7 days, read-out: IC50 U118MG.
Setting [2] is: Table 1b, read-out: 7-day IC50 U118MG.

A word on the IC50: it is the concentration at which inhibition is half-maximal. Turning to `Cn1nnc2c(C(=O)O)ncn2c1=O` [Compound 3], the IC50 in the assay with U118MG cells (setting [1]) came to 370 ± 20 µM.

On to `CNC(=O)c1ncn2c(=O)n(C)nnc12` [Compound 4, N,3-dimethyl-4-oxo-3,4-dihydroimidazo[5,1-d][1,2,3,5]tetrazine-8-carboxamide], for which the values for the IC50 with U118MG cells (setting [1]) and in the assay with U3054MG GBM cell line were 280 ± 20 µM and 290 ± 20 µM, respectively.

Consider `CN(C)C(=O)c1ncn2c(=O)n(C)nnc12` [Compound 5, N,N,3-trimethyl-4-oxo-3,4-dihydroimidazo[5,1-d][1,2,3,5]tetrazine-8-carboxamide], for which the IC50 in the assay with U118MG cells (setting [1]) is 130 ± 30 µM; with U3054MG GBM cell line it was 132 ± 6 µM.

Consider `CCN(CC)C(=O)c1ncn2c(=O)n(C)nnc12` [Compound 6, N,N-diethyl-3-methyl-4-oxo-3,4-dihydroimidazo[5,1-d][1,2,3,5]tetrazine-8-carboxamide], for which, in the assay on U118MG cells (setting [1]), the concentration for half-maximal inhibition (IC50) is 80 ± 10 µM.

Take `Cc1ncn2c(=O)n(C)nnc12` [Compound 14, 3,8-dimethylimidazo[5,1-d][1,2,3,5]tetrazin-4(3H)-one]: the IC50 with U118MG cells (setting [1]) amounted to 7 ± 1 µM.

Consider `CC(=O)c1ncn2c(=O)n(C)nnc12` [Compound 17, 8-acetyl-3-methylimidazo[5,1-d][1,2,3,5]tetrazin-4(3H)-one], for which the IC50 with U118MG cells (setting [1]) was found to be 115 ± 9 µM; in the assay on U3054MG GBM cell line, 125 ± 4 µM.

In the case of `Cn1nnc2c(Br)ncn2c1=O` [Compound 18, 8-bromo-3-methylimidazo[5,1-d][1,2,3,5]tetrazin-4(3H)-one], in the assay on U118MG cells (setting [2]), the IC50 is 80 ± 20 µM.

Turning to `Cn1nnc2c(Cl)ncn2c1=O` [Compound 19, 8-chloro-3-methylimidazo[5,1-d][1,2,3,5]tetrazin-4(3H)-one], the IC50 in the assay on U118MG cells (setting [1]) stood at 60 ± 20 µM; with U3054MG GBM cell line, 87 ± 4 µM.

Take `Cn1nnc2c(-c3ccccc3)ncn2c1=O` [Compound 23, 3-methyl-8-phenylimidazo[5,1-d][1,2,3,5]tetrazin-4(3H)-one]: the IC50 with U118MG cells (setting [1]) worked out at 3 ± 1 µM; in the assay with U3054MG GBM cell line, 18 ± 1 µM.

As to `Cn1nnc2c(-c3ccc(Cl)cc3)ncn2c1=O` [Compound 26, 8-(4-chlorophenyl)-3-methylimidazo[5,1-d][1,2,3,5]tetrazin-4(3H)-one], the IC50 in the assay on U118MG cells (setting [2]) turned out to be 5 ± 1 µM.

As to `Cc1cnc(-c2ncn3c(=O)n(C)nnc23)o1` [Compound 27, 3-methyl-8-(5-methyloxazol-2-yl)imidazo[5,1-d][1,2,3,5]tetrazin-4(3H)-one], the IC50 with U118MG cells (setting [1]) amounted to 70 ± 20 µM; in the assay on U3054MG GBM cell line, 123 ± 6 µM.

`Cn1nnc2c(C(N)=S)ncn2c1=O` [Compound 28, 3-methyl-4-oxo-3,4-dihydroimidazo[5,1-d][1,2,3,5]tetrazine-8-carbothioamide]: the IC50 in the assay with U118MG cells (setting [1]) stood at 12 ± 2 µM.

Consider `Cn1nnc2c(C(N)=O)ncn2c1=O` [TMZ, temozolomide, reference compound], for which the IC50 in the assay on U3054MG GBM cell line came to 370 ± 40 µM.
